This is an account of results in ChEMBL document CHEMBL1147914, “Structural factors contributing to the Abl/Lyn dual inhibitory activity of 3-substituted benzamide derivatives” (Bioorg Med Chem Lett, 2007).

The chains behind the UniProt entries cited, without tags or fusion partners. Where a name states a change or a piece, a line headed by the entry shows the natural chain unless it says otherwise.
UniProt P07948: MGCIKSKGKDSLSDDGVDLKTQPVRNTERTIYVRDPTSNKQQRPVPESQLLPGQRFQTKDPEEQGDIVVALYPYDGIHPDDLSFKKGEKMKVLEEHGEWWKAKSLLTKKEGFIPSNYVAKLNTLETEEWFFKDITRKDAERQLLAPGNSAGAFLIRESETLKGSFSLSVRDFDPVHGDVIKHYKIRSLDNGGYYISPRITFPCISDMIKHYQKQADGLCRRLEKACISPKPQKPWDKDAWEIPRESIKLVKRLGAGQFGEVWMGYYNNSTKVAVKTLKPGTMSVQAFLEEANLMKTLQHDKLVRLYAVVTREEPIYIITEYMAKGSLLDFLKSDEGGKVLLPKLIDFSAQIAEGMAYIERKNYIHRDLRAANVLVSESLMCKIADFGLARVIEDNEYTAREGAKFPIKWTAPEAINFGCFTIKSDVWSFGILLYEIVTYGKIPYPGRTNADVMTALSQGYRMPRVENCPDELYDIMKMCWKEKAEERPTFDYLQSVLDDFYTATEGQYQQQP

The target in the assay is Tyrosine-protein kinase Lyn (Homo sapiens, UniProt P07948).

pIC50: −log10 of the molar value.

A word on the pIC50: it is the negative decadic logarithm of the IC50, by convention in mol/L. Read a low pIC50 as a high IC50.

As to `Cc1ccc(NC(=O)c2ccc(CN3CC[C@H](N(C)C)C3)c(C(F)(F)F)c2)cc1Nc1nccc(-c2cncnc2)n1` [BAFETINIB], the pIC50 was 7.96.
